Data on one compound can be found in ChEMBL document CHEMBL5321237 (Eur J Med Chem, 2023).

Sequences of proteins named here, by UniProt entry; tags and fusion partners are left off.
UniProt P07333, whole entry: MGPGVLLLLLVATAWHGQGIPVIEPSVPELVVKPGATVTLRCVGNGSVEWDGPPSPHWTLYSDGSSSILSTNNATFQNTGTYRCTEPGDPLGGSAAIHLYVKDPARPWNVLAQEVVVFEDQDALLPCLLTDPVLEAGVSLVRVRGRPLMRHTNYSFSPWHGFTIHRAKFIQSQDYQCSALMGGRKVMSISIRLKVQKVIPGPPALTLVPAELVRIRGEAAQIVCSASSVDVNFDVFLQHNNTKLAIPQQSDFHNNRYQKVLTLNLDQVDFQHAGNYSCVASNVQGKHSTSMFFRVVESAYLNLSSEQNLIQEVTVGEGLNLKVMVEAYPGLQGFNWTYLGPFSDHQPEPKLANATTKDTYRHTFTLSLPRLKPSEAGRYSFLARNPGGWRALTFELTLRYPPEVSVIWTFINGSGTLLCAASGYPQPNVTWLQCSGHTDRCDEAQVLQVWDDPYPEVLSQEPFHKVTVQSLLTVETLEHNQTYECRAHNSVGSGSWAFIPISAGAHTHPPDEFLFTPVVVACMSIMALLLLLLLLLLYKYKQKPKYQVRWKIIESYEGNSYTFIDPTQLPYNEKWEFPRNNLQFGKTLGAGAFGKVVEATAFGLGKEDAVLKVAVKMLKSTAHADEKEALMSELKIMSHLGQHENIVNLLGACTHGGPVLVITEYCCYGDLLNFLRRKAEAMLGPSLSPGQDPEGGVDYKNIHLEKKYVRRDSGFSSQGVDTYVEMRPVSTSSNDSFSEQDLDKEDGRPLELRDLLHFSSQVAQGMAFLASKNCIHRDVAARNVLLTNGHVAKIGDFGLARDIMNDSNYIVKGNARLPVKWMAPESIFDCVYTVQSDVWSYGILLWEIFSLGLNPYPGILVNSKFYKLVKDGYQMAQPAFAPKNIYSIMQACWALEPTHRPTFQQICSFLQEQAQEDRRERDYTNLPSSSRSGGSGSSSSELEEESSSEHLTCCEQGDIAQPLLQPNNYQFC

Test [1] addresses T1, Macrophage colony-stimulating factor 1 receptor (Mus musculus) (UniProt P09581).
T1 sequence (whole entry): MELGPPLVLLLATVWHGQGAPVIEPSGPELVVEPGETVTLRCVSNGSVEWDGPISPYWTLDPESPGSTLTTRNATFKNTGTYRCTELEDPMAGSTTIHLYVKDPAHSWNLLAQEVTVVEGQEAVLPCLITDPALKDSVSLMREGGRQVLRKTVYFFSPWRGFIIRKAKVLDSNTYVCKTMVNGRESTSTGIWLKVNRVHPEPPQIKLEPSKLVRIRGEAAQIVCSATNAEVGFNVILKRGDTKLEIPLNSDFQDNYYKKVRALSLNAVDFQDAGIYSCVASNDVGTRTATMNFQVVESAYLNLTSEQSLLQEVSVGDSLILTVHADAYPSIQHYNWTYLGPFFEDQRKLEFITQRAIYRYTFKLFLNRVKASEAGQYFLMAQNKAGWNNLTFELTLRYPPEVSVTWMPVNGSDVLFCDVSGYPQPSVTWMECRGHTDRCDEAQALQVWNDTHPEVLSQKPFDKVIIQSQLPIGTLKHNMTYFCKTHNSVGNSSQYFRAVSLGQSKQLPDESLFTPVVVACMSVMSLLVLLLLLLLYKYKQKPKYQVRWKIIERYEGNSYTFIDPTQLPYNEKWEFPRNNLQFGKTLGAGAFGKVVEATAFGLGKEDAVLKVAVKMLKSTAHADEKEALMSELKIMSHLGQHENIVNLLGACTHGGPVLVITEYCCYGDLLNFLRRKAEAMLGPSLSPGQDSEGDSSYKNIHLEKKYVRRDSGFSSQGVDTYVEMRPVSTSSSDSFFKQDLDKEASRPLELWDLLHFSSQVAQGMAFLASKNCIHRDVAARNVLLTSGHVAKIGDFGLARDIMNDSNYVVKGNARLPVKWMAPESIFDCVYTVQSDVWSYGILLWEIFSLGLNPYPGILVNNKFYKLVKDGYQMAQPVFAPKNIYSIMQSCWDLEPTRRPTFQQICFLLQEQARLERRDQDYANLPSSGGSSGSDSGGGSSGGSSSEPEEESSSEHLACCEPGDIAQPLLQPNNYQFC
Nature of the test: Inhibition of CSF1-induced CSF1R signalling in mouse BMDM cells assessed as reduction in ERK1/2 phosphorylation by measuring fold change preincubated for 30 mins followed by CSF1 addition and measured after 10 mins relative to pexidartinib. The class given is cell-based. To be noted: time 40.0 min.

The target of test [2] is Macrophage colony-stimulating factor 1 receptor (Homo sapiens, UniProt P07333). Nature of the test: Selectivity index, ratio of Kd for non-autoinhibited form of CSF1R (unknown origin) to Kd for autoinhibited form of CSF1R (unknown origin).

For the compound `CN(CC1CCOCC1)c1ncnc2[nH]c(-c3ccc(CO)cc3)nc12`, the fold change (FC) in test [1] was 0.9. The Ratio in test [2] was determined as 18.
